Test results reported in patent EP3046573B1, “AMYLIN ANALOGUES” (Zealand Pharma A/S, priority 2013, dated 2015).

Assay: in vivo
Conditions: female, NMRI, mouse

half-life (iv): 6 min
bioavailability (sc): 46%
half-life (sc): 18 min
Structure (SMILES): CC[C@H](C)[C@H](NC(=O)[C@@H]1CCCN1C(=O)CNC(=O)[C@H](Cc1ccccc1)NC(=O)[C@H](CC(N)=O)NC(=O)[C@H](CC(N)=O)NC(=O)[C@H](CO)NC(=O)[C@H](CO)NC(=O)[C@H](Cc1c[nH]cn1)NC(=O)[C@@H](NC(=O)[C@H](CC(C)C)NC(=O)[C@H](Cc1ccccc1)NC(=O)[C@H](CC(N)=O)NC(=O)[C@H](C)NC(=O)[C@H](CC(C)C)NC(=O)[C@H](CCCNC(=N)N)NC(=O)[C@H](CCC(N)=O)NC(=O)[C@@H](NC(=O)[C@H](C)NC(=O)[C@@H]1CSSC[C@H](NC(=O)[C@@H](N)CCCCN)C(=O)N[C@@H](CC(N)=O)C(=O)N[C@@H]([C@@H](C)O)C(=O)N[C@@H](C)C(=O)N[C@@H]([C@@H](C)O)C(=O)N1)[C@@H](C)O)C(C)C)C(=O)N[C@@H](CC(C)C)C(=O)N1CCC[C@H]1C(=O)N1CCC[C@H]1C(=O)N[C@H](C(=O)N[C@@H](CC(N)=O)C(=O)N[C@H](C(=O)NCC(=O)N[C@@H](CO)C(=O)N[C@@H](CC(N)=O)C(=O)N[C@H](C(=O)N[C@@H](Cc1ccc(O)cc1)C(N)=O)[C@@H](C)O)C(C)C)[C@@H](C)O [pramlintide]
